An excerpt weighted towards active compounds, which were near 4.2% of everything screened.
MC4R antag cAMP: blocks human MC4R cAMP signaling; P32245; MC4R-expressing cells, MTII-stimulated cAMP, LANCE TR-FRET; inhibition, % at 6.5 µM; 0.48% of 360,000 active; AID 540295;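 active = inhibition above its plate's cutoff, the mean of tested wells on that plate plus 3 SD, cut at about 29% in these data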;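 also: 0% = Melanotan II alone and 100% = Melanotan II plus saturating MCL0020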
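Assay system: U2OS cells stably expressing human melanocortin 4 receptor (MC4R) / Dosing: 6.5 µM / Timing: compound 30 min, challenge 1 h, detection 1 h / Measured by: Eu-cAMP/anti-cAMP TR-FRET, emission 671 nm / Replicates: singlicate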
HDAC3 inh: human HDAC3 inhibition | recombinant HDAC3, fluorogenic peptide/trypsin coupled, fluorescence | inhibition, % at 8.3 µM | 0.15% of 320,000 active; in the data active = inhibition above about 26%, passing the limit was not always enough; inconclusive = no clear call, values can overlap the other calls
NALP1 yeast inh: inhibitors of NALP1 inflammasome in yeast. S. cerevisiae NALP1/ASC/caspase-1 growth, X-gal OD620, 72 h. inhibition, % at 10 µM. 0.61% of 280,000 active; in the data active = inhibition mostly above about 24%, no sharp cut-off; inactive = mostly below about 32%
ALR H2O2 inh: blocks human ALR sulfhydryl oxidase activity | inhibition, % (no concentration beside the values) | 3.8% of 290,000 active | purified ALR, DTT oxidation, H2O2 HRP-luminol luminescence | AID 485317 | P55789;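 active = mean and each replicate at 75% or more; inconclusive = only one of the two met; inactive = neither met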;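 also: stock transfer was 7.5 nL into about 7.5 µL; 0% = neutral wells and 100% = wells with inactivated enzyme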
UUG fidelity: yeast start codon fidelity modulation; activity score, % at 18.7 µM; actives 0.13% (n = 350,000); S. cerevisiae UUG-firefly luciferase reporter, luminescence/redox ratio; AID 602363;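 active means replicate mean at a twofold rise or more, about +100% in these data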;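 further: firefly luciferase made from a UUG start codon reports start codon fidelity; reporter light over untreated wells divided by growth signal over untreated wells; some hits fall short of that in this replicate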
MC4R ag barr: agonists of human melanocortin 4 receptor (MC4R) beta-arrestin | P32245 | U2OS MC4R beta-arrestin complementation, luminescence; percent of melanotan II response, DMSO zero | activation, % at 8.9 µM | 0.98% of 360,000 active;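 active = activation above a per-plate cutoff, the mean activation of sample wells on that plate plus 3 SD, cut at about 8% in these data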
* = called active by the depositor; ? = inconclusive; nt = no result given.

The line under a structure holds: MC4R antag cAMP | HDAC3 inh | NALP1 yeast inh | ALR H2O2 inh | UUG fidelity | MC4R ag barr
#1 CN1c2ccc(-c3ccc(F)cc3)cc2[C@@H]2[C@@H](CCN2S(=O)(=O)c2ccc(F)cc2)[C@H]1CO
  nt | nt | nt | nt | -19 | nt
#2 O=[N+]([O-])c1ccc2nc[nH]c2c1
  5 | nt | nt | nt | -7 | -1
#3 Nc1[nH]c2cc([N+](=O)[O-])ccc2c1-c1ccccn1
  9 | -1 | 22 | 92* | -11 | -3
#4 C[C@@H]1CCCCO[C@@H](CN(C)C(=O)Nc2ccc(F)cc2)[C@@H](C)CN([C@H](C)CO)C(=O)c2cc(NC(=O)c3ccccc3)ccc2O1
  nt | nt | nt | nt | -9 | nt
#5 C[C@@H]1CN([C@@H](C)CO)S(=O)(=O)c2ccc(/C=C/c3ccccc3)cc2O[C@H]1CN(C)C(=O)c1ccc2c(c1)OCO2
  nt | nt | nt | nt | -11 | nt
#6 Cc1csc(NC(=O)c2oc3ccccc3c2C)n1
  -2 | -11 | nt | 5 | -28 | -1
#7 Cc1c(C(=O)NC2=NCCS2)oc2ccccc12
  -3 | 13 | 20 | 97* | -26 | 0
#8 CCCCc1nc(N2CCOCC2)c(C#N)c2c1COC(C)(C)C2
  4 | -16 | 12 | 100* | -2 | 1
#9 CCc1ccc2oc(-c3ccc(NC(C)=O)cc3)nc2c1
  8 | -17 | 15 | 96* | -15 | 0
#10 O=Cc1ccc(O)c2ncccc12
  -3 | nt | 82* | nt | -9 | -1

The line under a structure holds: MC4R antag cAMP | HDAC3 inh | NALP1 yeast inh | ALR H2O2 inh | UUG fidelity | MC4R ag barr
#11 Cc1noc(C)c1S(=O)(=O)Nc1ccc2c(c1)C(=O)N([C@@H](C)CO)C[C@H](C)[C@@H](CN(C)S(=O)(=O)c1cn(C)cn1)OCCCC[C@H](C)O2
  nt | nt | nt | nt | 21 | nt
#12 C[C@H](CO)N1C[C@H](C)[C@@H](CN(C)C(=O)Nc2ccc3c(c2)OCO3)Oc2ncc(-c3cccnc3)cc2C1=O
  nt | nt | nt | nt | -3 | nt
#13 O=C(C[C@H]1C=C[C@@H](NS(=O)(=O)c2ccc(F)cc2)[C@@H](CO)O1)NCCN1CCCCC1
  nt | nt | nt | nt | -1 | nt
#14 CCN(CCNC(=O)c1ccc(CSc2nc3ccncc3[nH]2)cc1)c1ccccc1
  2 | 10 | 11 | 98* | -6 | -1
#15 C=CCNC(=O)c1onc(CSc2ccccc2)c1C(=O)O
  0 | 5 | -3 | 9 | -8 | -1
#16 C=CCNC(=O)c1onc(CSc2cccc(OCC)c2)c1C(=O)O
  -5 | -1 | -3 | 94* | -10 | -1
#17 C=CCNC(=O)c1onc(CSc2ccc(OC)cc2)c1C(=O)O
  3 | 8 | -20 | 13 | -13 | -3
#18 C=CCNC(=O)c1onc(CSc2ccc(C(C)C)cc2)c1C(=O)O
  -1 | -4 | -18 | 97* | 3 | -2
#19 O=C(C[C@H]1CC[C@H]2[C@@H](COC[C@@H](O)CN2C(=O)Nc2cccc(Cl)c2)O1)NCCCN1CCOCC1
  nt | nt | nt | nt | 3 | nt
#20 c1ccc2sc(N3CCCCC3)nc2c1
  -3 | nt | nt | nt | -27 | 0

The line under a structure holds: MC4R antag cAMP | HDAC3 inh | NALP1 yeast inh | ALR H2O2 inh | UUG fidelity | MC4R ag barr
#21 O=C1CNC(=S)N1c1nc2ccccc2s1
  1 | 9 | nt | 95* | -27 | -1
#22 CC(=O)NC[C@@H]1[C@@H](c2ccccc2)[C@H](CO)N1C(=O)Cc1cccnc1
  nt | nt | nt | nt | -5 | nt
#23 CC(=O)N1CC[C@@H]2[C@@H](CO)N(C)c3ccc(-c4ccccc4)cc3[C@@H]21
  nt | nt | nt | nt | 7 | nt
#24 COc1ccc(-c2nc(SC(C)C(=O)Nc3ccc(NC(C)=O)cc3)n[nH]2)cc1 (stereo unspecified)
  -3 | 9 | nt | 98* | 8 | 1
#25 CCOc1cc(-c2cc(-c3ccc(C)o3)nc(N)c2C#N)ccc1O
  -4 | -7 | 16 | 80* | -17 | 6
#26 CCN(CC)/C(Sc1ccccc1)=C(\C(Cl)=C(Cl)Cl)[N+](=O)[O-]
  1 | 5 | -2 | ? | nt | 1
#27 O=[N+]([O-])/C(C(Cl)=C(Cl)Cl)=C(\Sc1ccccc1)N1CCCCC1
  -4 | 3 | 10 | 98* | nt | -2
#28 C[C@H](CO)N1C[C@H](C)[C@H](CN(C)Cc2ccncc2)Oc2cc(C#CC3CC3)ccc2S1(=O)=O
  nt | nt | nt | nt | -4 | nt
#29 CCc1ccc2nc3n[nH]c(N)c3cc2c1
  0 | -6 | 10 | 90* | -28 | -2
#30 C/C=C/c1ccc2c(c1)O[C@@H](CN(C)C(=O)COC)[C@@H](C)CN([C@H](C)CO)S2(=O)=O
  nt | nt | nt | nt | -15 | nt
#31 CCOC(=O)N1C(=O)[C@@](CC)(c2ccccc2)N1C(=O)OCC
  9 | 35* | 13 | nt | -5 | -1
#32 CC[C@@]1(c2ccccc2OC)C(=O)N(C(=O)OC)N1C(=O)OC
  3 | 2 | 16 | nt | -15 | -2

Entries shown so far containing a COOH group, in the order listed:
The line under a structure holds: MC4R antag cAMP | HDAC3 inh | NALP1 yeast inh | ALR H2O2 inh | UUG fidelity | MC4R ag barr
#15 C=CCNC(=O)c1onc(CSc2ccccc2)c1C(=O)O
  0 | 5 | -3 | 9 | -8 | -1
#16 C=CCNC(=O)c1onc(CSc2cccc(OCC)c2)c1C(=O)O
  -5 | -1 | -3 | 94* | -10 | -1
#17 C=CCNC(=O)c1onc(CSc2ccc(OC)cc2)c1C(=O)O
  3 | 8 | -20 | 13 | -13 | -3
#18 C=CCNC(=O)c1onc(CSc2ccc(C(C)C)cc2)c1C(=O)O
  -1 | -4 | -18 | 97* | 3 | -2

High-throughput results (PubChem)
